Values of other authors, collected in patent EP4140474A1, “NUT[…] THE REDUCTION OF OSTE[…] AND INFLAMMATION” (Theracell Advanced Biotechnology S.A., priority 2021, dated 2023).

Amino acid sequences for entries named in this document (tags omitted). Residues count along the entry.
UniProt P23219, 24-599: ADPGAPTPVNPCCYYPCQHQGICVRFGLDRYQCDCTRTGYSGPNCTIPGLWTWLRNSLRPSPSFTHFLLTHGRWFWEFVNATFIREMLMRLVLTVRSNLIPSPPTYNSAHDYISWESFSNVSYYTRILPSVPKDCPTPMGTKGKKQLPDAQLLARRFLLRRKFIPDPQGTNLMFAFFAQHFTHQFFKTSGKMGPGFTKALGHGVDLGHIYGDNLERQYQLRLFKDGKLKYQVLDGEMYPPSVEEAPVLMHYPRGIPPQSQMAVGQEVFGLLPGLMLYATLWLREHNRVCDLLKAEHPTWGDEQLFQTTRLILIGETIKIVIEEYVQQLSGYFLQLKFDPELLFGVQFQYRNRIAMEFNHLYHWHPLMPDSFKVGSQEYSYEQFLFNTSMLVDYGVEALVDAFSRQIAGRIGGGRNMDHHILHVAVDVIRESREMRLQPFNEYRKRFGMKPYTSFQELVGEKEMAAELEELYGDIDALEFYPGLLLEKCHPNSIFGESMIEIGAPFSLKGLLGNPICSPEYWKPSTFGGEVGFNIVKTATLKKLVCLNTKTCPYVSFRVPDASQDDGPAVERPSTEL

Target: cyclooxygenase COX-1 (Homo sapiens, UniProt P23219)

## Oc1ccc(C=Cc2cc(O)cc(O)c2)cc1 [resveratrol]
  IC50: 15 µM
